Each structure is given as a SMILES string. The entries are a selection whose mix differs from that of the whole data set. Some of these compounds have results that are not shown, active ones among them. Calls of active or inactive are those of the source.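 The calls were made as follows: active = calcium response B-score plate-corrected fluorescence ratio at least 3 library SD, with starting fluorescence B-score inside 5 SD; inactive = the rest.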

Sequences of proteins named here, by UniProt entry; tags and fusion partners are left off.
UniProt Q96LB2, whole entry: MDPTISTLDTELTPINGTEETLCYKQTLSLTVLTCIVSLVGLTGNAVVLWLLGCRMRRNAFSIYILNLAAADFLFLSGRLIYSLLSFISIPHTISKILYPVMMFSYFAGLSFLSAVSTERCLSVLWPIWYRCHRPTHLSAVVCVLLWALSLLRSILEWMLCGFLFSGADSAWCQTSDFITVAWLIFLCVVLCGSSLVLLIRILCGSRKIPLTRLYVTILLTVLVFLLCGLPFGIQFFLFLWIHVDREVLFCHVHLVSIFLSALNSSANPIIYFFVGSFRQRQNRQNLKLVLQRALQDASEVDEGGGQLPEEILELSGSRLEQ

In the assay the target is Mas-related G-protein coupled receptor member X1 (Homo sapiens) (UniProt Q96LB2). The assay can be described thus: agonists of human MrgX1 receptor, primary screen, HEK293 cells, Fluo-4 calcium flux (AID 588627). As to conditions: Fluo-4 calcium fluorescence, agonist mode, at 10 µM. Summed up:
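Test system: HEK293 cells stably expressing human MrgX1 receptor; Input: fifteen thousand cells per well; Dosing: compound delivered in addition one of three; Schedule: overnight seeding, then 1 h dark dye loading; Technique: Fluo-4 NW calcium fluorescence; Measure: B-scored fluorescence response ratio; Controls: positive and negative controls per plate.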
(Calcium assays in cells follow changes in intracellular calcium, usually with a dye or a luminescent sensor.)
Turning to `COc1ccc(Br)c(C(=O)NCC2(N3CCCCC3)CCCCC2)c1`, the result was inactive. As for `CN(C)c1cccc(C(=O)NCC2(N(C)C)CCCCC2)c1`, the result was inactive. Take `CC(C)Oc1ccc(C(=O)NCC2(N(C)C)CCCCC2)cc1`: the outcome was inactive.

With `O=C(OC1CN2CCC1CC2)C(CO)(c1ccccc1)c1ccccc1` (centres undefined), the result was inactive. Take `COc1ccc(Cl)cc1C(=O)NCC1(N(C)C)CCCCC1`: the outcome was inactive. Consider `COc1cccc(C(=O)NCC2(N3CCCCC3)CCCCC2)c1`, for which the result was inactive. To `O=C(NCC1(N2CCCCC2)CCCCC1)c1cccc(Cl)c1` belongs “inactive”.

For the compound `CN(C)C1(CNC(=O)c2ccc(Br)cc2)CCCCC1`, the outcome was inactive. Take `COc1cc(C(=O)NCC2(N(C)C)CCCCC2)c([N+](=O)[O-])cc1OC`: the outcome was inactive. As to `O=C(NCC1(N2CCCCC2)CCCCC1)c1cc(F)c(F)cc1Cl`, the result was inactive. As for `C=CCN1CCN(CCOC(=O)C(O)(c2ccccc2)c2ccccc2)CC1`, the result was inactive. The same measure for `O=C(NCC1(N2CCCCC2)CCCCC1)c1cccc(Br)c1`: “inactive”.

Regarding `Cc1cc(C(=O)NCC2(N3CCCCC3)CCCCC2)ccc1[N+](=O)[O-]`, the result was inactive. To `CCN1CCCC(OC(=O)C2(O)c3ccccc3C=Cc3ccccc32)C1` (centres undefined) belongs “inactive”. Consider `COc1ccc(C(=O)NCC2(N(C)C)CCCCC2)cc1`, for which the outcome was inactive. As for `CN(C)C1CCCC1OC(=O)C(O)(c1ccccc1)c1ccccc1` (centres undefined), the result was inactive. `CN(C)c1ccc(C(=O)NCC2(N(C)C)CCCCC2)cc1`: the result was inactive. As for `Cc1ccccc1C(=O)NCC1(N2CCCCC2)CCCCC1`, the result was inactive.

Regarding `CC(C)N1C(=O)CC2(CCN(CCOC(=O)C(O)(c3ccccc3)c3ccccc3)CC2)C1=O`, the result was inactive. Consider `COc1cc(SC)ccc1C(=O)NCC1(N(C)C)CCCCC1`, for which the outcome was inactive. On to `CCN(CC)CC(C)C(C)OC(=O)C(O)(c1ccccc1)c1ccccc1` (centres undefined), for which the result was inactive. For `Cc1ccc(C(=O)NCC2(N3CCCCC3)CCCCC2)cc1`, the result was inactive. As to `O=C(NCC1(N2CCCCC2)CCCCC1)c1cc([N+](=O)[O-])ccc1Cl`, the outcome was inactive. On to `CN1[C@@H]2CC[C@H]1CC(OC(=O)C(O)(c1ccccc1)c1ccccc1)C2` (some centres undefined), for which the outcome was inactive.

These data come from PubChem BioAssay AID588627 (Johns Hopkins Ion Channel Center, 2011).
